Test results published in article PMC6789111, “Crossing the blood-brain-barrier with nanoligand drug carriers self-assembled from a phage display peptide” (Nature Communications, 2019).

Tested on: hCMEC/D3 cells
Assay: Uptake with internalisation inhibitors
Details: IMC (indomethacin 200 μM), 8 h, 37 °C; replicate 3

With “Transferrin: Texas Red-labelled transferrin, TfR substrate, positive control [reference compound]” the “Mean flouresence (%), uptake vs Control (no inhibitor)” value was 92.98%.
